Biological target: IDO (Homo sapiens (Human), UniProt P14902)
Assay: LLE_IDO_ABS_DR (IDO assay, method not described)
Conditions: read-out: LLE_IDO_ABS_DR (IC50)

By UniProt entry, the sequences of proteins in these tests, tags left out.
UniProt P14902, whole entry: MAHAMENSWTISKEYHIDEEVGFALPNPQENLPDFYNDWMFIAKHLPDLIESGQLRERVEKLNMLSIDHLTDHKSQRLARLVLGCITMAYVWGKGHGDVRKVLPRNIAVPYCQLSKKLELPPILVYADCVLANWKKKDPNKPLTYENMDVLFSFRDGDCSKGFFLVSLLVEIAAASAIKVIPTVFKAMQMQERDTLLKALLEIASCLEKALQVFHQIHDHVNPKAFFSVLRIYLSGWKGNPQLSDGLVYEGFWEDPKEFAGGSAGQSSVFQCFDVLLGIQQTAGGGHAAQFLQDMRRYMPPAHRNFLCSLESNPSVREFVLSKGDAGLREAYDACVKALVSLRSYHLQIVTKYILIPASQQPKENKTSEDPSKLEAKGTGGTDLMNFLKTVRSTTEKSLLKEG

| IC50 [nM] | Structure (SMILES) |
| --- | --- |
| 650 | Cc1ccc(NC(=O)Nc2cc(-c3ccccc3-c3nnn[nH]3)cc(C/C=C/C(F)(F)F)c2OCCC(F)(F)F)cc1 |
| 140 | O=C(Nc1ccccc1F)Nc1cc(-c2ccccc2-c2nnn[nH]2)cc(C/C=C/C(F)(F)F)c1OCCC(F)(F)F |

— patent publication US9765018B2, “IDO inhibitors” (BRISTOL-MYERS SQUIBB COMPANY, priority 2013, dated 2017)
